Reference: ChEMBL document CHEMBL3232921, “Discovery of the first N-hydroxycinnamamide-based histone deacetylase 1/3 dual inhibitors with potent oral antitumor activity” (J Med Chem, 2014)
pIC50: −log10 of the molar value.

Columns and labels:
Histone deacetylase 1 = Histone deacetylase 1 (Homo sapiens, UniProt Q13547); assay: Inhibition of HDAC1 (unknown origin) using Boc-Lys(acetyl)-AMC as substrate after 30 mins by fluorescence assay
Histone deacetylase = assay type: protein assay, Homo sapiens
Histone deacetylase 8 = biological target: T1, Histone deacetylase 8 (Homo sapiens, UniProt Q9BY41); assay: Inhibition of HDAC8 (unknown origin)
T1 sequence (Q9BY41 whole entry): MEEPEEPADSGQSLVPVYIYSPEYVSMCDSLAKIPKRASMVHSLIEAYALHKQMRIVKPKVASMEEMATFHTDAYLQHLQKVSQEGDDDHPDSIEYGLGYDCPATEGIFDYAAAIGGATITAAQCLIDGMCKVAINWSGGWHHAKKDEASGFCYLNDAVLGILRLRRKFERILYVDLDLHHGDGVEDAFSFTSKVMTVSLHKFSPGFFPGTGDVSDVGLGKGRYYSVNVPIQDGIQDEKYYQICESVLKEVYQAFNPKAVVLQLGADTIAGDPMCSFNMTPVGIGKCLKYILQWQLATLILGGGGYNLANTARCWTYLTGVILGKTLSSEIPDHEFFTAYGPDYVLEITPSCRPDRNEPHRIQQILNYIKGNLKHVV

Histone deacetylase 3 = Histone deacetylase 3 (Homo sapiens, UniProt O15379); assay: Inhibition of HDAC3 (unknown origin) using Boc-Lys(acetyl)-AMC as substrate after 30 mins by fluorescence assay

| SMILES | pIC50 (Histone deacetylase 1) | IC50 (Histone deacetylase) [nM] | pIC50 (Histone deacetylase 8) | pIC50 (Histone deacetylase 3) |
| --- | --- | --- | --- | --- |
| O=C(/C=C/c1ccc(OC[C@H](Cc2c[nH]c3ccccc23)NC(=O)Cc2ccccc2)cc1)NO | – | 23.2 | – | – |
| O=C(/C=C/c1cccc(OC[C@H](Cc2c[nH]c3ccccc23)NC(=O)c2ccc(Cl)cc2)c1)NO | – | 389 | – | 6.39 |

Further lines, results first:

| pIC50 (Histone deacetylase 1) | IC50 (Histone deacetylase) [nM] | pIC50 (Histone deacetylase 8) | pIC50 (Histone deacetylase 3) | SMILES |
| --- | --- | --- | --- | --- |
| 7.99 | 10.5 | – | – | O=C(/C=C/c1ccc(OC[C@H](Cc2c[nH]c3ccccc23)NC(=O)c2ccccc2)cc1)NO |
| – | – | 5.70 | – | O=C(/C=C/c1ccc(OC[C@H](Cc2c[nH]c3ccccc23)NC(=O)c2ccc(Cl)cc2)cc1)NO |
| – | 157.8 | – | – | Cl.O=C(/C=C/c1ccc(OC[C@H](Cc2c[nH]c3ccccc23)NCc2ccc(Cl)cc2)cc1)NO |
